In article PMC7599001, “The SNAP-tag technology revised: an effective chemo-enzymatic approach by using a universal azide-based substrate” (Journal of Enzyme Inhibition and Medicinal Chemistry, 2020):

Target: T1, SNAP-tag® (Homo sapiens, UniProt P16455, A127T/C150S/C62A/G131K/G132T/K125A/M134L/N157G/R128A/R135S/S159E)
T1 sequence (P16455 1-182 C62A/K125A/A127T/R128A/G131K/G132T/M134L/R135S/C150S/N157G/S159E): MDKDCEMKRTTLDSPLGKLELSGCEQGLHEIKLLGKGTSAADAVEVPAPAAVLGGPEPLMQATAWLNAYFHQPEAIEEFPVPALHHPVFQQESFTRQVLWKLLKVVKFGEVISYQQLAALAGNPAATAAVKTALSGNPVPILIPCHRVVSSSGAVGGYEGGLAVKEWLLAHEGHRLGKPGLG
Assay: AGTs' substrate assay by competitive inhibition method with SVG (gel-imaging)
Assay type: biochemical
Settings: SVG 5 µM, enzyme 5 µM, 30 min at 25 °C
Description: Competitive inhibition assay was performed as described[23]^,[38]. Briefly, by using a fixed concentration of the fluorescent SVG (5 µM) and enzymes (5 µM), an increasing amount of guanine-derivatives (0–2 mM) was added to the mixtures. The reactions were incubated for 30 min at 25 °C and 50 °C for SNAP-tag® and H^5 respectively, and loaded on SDS-PAGE. Subsequently, fluorescent bands were measured by gel-imaging on a VersaDoc 4000™ system (Bio-Rad), by applying a blue LED/530 bandpass filter. […]
We evaluated the activity of SNAP-tag® and H^5 enzymes on BGN3 and BGSN3 by the afore-mentioned IC50 method (Figure S5(A,B)) and other O^6-guanine-derivatives (Table 1).
Because most of them are non-fluorescent compounds, we performed an AGTs’ competitive inhibition assay by using the fluorescein-derivative SNAP-Vista® Green as substrate (SVG), as previously described[22–24]^,[45]. […] The presence of increasing amounts of a non-fluorescent competitor in the reaction causes a decrease of the fluorescent signals, which can be measured and plotted for the IC50 values determination[23]^,[46].

SMILES: Nc1nc(OCc2ccccc2)c2nc[nH]c2n1 [BG, O^6-benzyl-guanine]
- IC50: 36.8 ± 5.6 µM
